# Antibody variant affinities, Ab-14 light chain, assay 1

The measurements come from Engelhart et al. 2022 (doi:10.1038/s41597-022-01779-4) through the FLAb antibody collection.

Target: peptide PDVDLGDISGINAS, taken from heptad repeat 2 (HR2) of SARS-CoV-2 spike.

Ab-14 is the parent antibody, in scFv form: VH, then the linker GGGGSGGGGSGGGGS, then VL. The heavy chain is unchanged in all variants.
VH: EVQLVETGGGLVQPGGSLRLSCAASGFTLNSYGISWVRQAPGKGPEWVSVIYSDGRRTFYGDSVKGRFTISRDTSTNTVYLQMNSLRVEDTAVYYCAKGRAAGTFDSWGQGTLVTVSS
VL: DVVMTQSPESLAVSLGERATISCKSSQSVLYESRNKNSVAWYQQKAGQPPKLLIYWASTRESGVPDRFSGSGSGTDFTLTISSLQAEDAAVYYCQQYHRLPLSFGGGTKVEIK

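The parent was found by panning a naive human phage display library on the peptide. The library (AAYL50) carries one to three amino acid substitutions per variant, with no insertions or deletions. Affinity was read by AlphaSeq, a pooled yeast mating assay with surface-displayed partners. Pairs that bind mate more often; barcode pairs of the diploids are counted by sequencing. Each replicate has its own calibration line, from reference interactions of the BCL2 family. Each pool was mated in three replicate cultures.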

Variants are written as CDR1, CDR2 and CDR3 of the light chain (limits as in the source). Parent: KSSQSVLYESRNKNSVA, WASTRES, QQYHRLPLS.
Numbers give log10(Kd / nM), so 0 is 1 nM and 3 is 1 µM. Smaller is tighter.
The mean shown is taken over the replicates in which the pair was detected.
"n.d." means that the variant was in the library but no mating with the target was seen in that replicate; the authors take this as a sign of poor binding, and no number exists.
Parent in this assay: reference entry 0.65, copy in this library 1.68.
As a blank, each scFv also met three strains without target: over library AAYL50, 18% of these pairings were detected, typically at 4.19 and seldom below 2.99. The control count says in how many pairings with the empty strains this scFv gave a signal, with their mean in brackets.

CDR-L1	CDR-L2	CDR-L3	log10 Kd, replicates	mean log10 Kd (nM)	control signals
FSSQSVLYESRNKNSVA	WASTRES	QQYRRNPLS	n.d. n.d. 4.61	4.61	1/9 (2.74)
KSSQSVLYESRNKNSVA	WALTIES	QQYHRLPPS	n.d. n.d. 4.44	4.44	1/9 (4.90)
KLQQSVLYESRNKNSVA	WASTRES	QQYHRLPFS	0.28 0.54 0.29	0.37	0/9
KSSSSVLYESRNKNSVA	WASTRGS	QYYHRLPLS	1.79 2.14 2.25	2.06	4/9 (3.96)
FSSQSVAYESRNKNKVA	WASTRES	QQYHRLPLS	2.88 n.d. 3.13	3.01	3/9 (3.90)
KSSQSVLYELKYKNSVA	WASTRES	QQYHRLPLS	n.d. n.d. 2.61	2.61	0/9
KWSQSVLYESRNKNEVA	WASTRES	QQYIRLPLS	3.15 n.d. n.d.	3.15	0/9
KSEQSVLFESRNKNSVA	WATTRES	QQYHRLPLS	0.77 1.04 1.09	0.97	3/9 (4.41)
KSSISVLCESRNKNSVA	WASTREW	QQYHRLPLS	2.02 2.43 2.08	2.18	2/9 (4.00)
KSSQSVLYESRNKNTVA	FARTRES	QQYHRLPLS	n.d. n.d. n.d.	n.d.	0/9
GSSQSVLYESRNKNEVA	WAITRES	QQYHRLPLS	n.d. n.d. n.d.	n.d.	0/9
KSSQSVLYESRNKNSVA	WCSTRES	QYYHRLPLS	n.d. n.d. n.d.	n.d.	0/9
KSSQSVLYESRMKNSVA	WASTEES	QQYDRLPLS	4.69 4.37 n.d.	4.53	5/9 (4.09)
KQSQSVLYESRNKNSVA	WASTRRS	QQYSRLPLS	0.72 0.94 0.84	0.83	3/9 (4.79)
KSSQSVIYESRNNNSVA	KASTRES	QQYHRLPLS	0.20 0.47 0.20	0.29	4/9 (5.16)
KQSQSVLYESCNKNSVA	WASTRES	QLYHRLPLS	2.14 2.25 2.89	2.43	2/9 (4.42)
KSSQCVLNESRNKNSVA	WASTRES	AQYHRLPLS	1.02 1.03 0.81	0.95	1/9 (2.36)
SSSQSVLYEIRNKNSVA	WASTRES	QQYHRLPLY	3.72 3.09 5.25	4.02	4/9 (4.29)
KSSQSVLYESCNKNSVA	TASTRES	QQYHYLPLS	1.83 1.79 2.32	1.98	0/9
KSSQSVLYELDNKFSVA	WASTRES	QQYHRLPLS	0.61 0.88 0.86	0.78	1/9 (4.70)
KSSQSVLYEARNKNSVA	WASTRES	QQYHRLPRH	3.99 n.d. 3.41	3.70	0/9
KSSQSVLYESSNKNSVA	WMSTRWS	QQYHRLPLS	1.83 1.80 1.72	1.78	0/9
KSSQFILYESRNKNSVA	WASTMES	QQYHRLPLS	n.d. 3.58 n.d.	3.58	0/9
KSSQSVLYESRNKNSVA	WASKRES	GQYHRLPLS	4.61 4.14 4.89	4.55	2/9 (4.74)
KSSQVVLYESRNQNSVA	WASTRES	RQYHRLPLS	3.65 n.d. n.d.	3.65	1/9 (3.63)
KSSQSVLYESCNKNSVA	WRSTRES	QQYHRLPLS	n.d. n.d. 3.38	3.38	0/9
KSSQSVLYRSRTKNSVA	WASTRES	QQYHRLPLS	n.d. 3.90 3.93	3.91	0/9
KSNQSVLLESRNKNSVA	WASTRES	QQYVRLPLS	1.11 1.04 1.22	1.12	3/9 (4.14)
KSSQSVLYESRNKNSEA	WAQTRES	QQYHRLPHS	n.d. n.d. 3.48	3.48	1/9 (3.50)
KSSQSVLYESANKNSVA	WASTDES	QQYHRLPLS	n.d. n.d. n.d.	n.d.	0/9
KSSQSVMCASRNKNSVA	WASTRES	QQYHRLPLS	1.61 1.75 1.97	1.78	2/9 (3.39)
KSSQSVLYESRNKNDVA	WASTRWS	QQYHRLVLS	4.01 2.67 3.39	3.36	2/9 (4.29)
KSSQSVLYESRNKLSVA	WASSRES	QQYHRLPLP	n.d. n.d. n.d.	n.d.	0/9
KSSQSVLYESRNKNSVA	WASTRES	QQDNRLPLS	n.d. n.d. n.d.	n.d.	0/9

The first 4 entries again:

CDR-L1,CDR-L2,CDR-L3,"log10 Kd, replicates",mean log10 Kd (nM),control signals
FSSQSVLYESRNKNSVA,WASTRES,QQYRRNPLS,n.d. n.d. 4.61,4.61,1/9 (2.74)
KSSQSVLYESRNKNSVA,WALTIES,QQYHRLPPS,n.d. n.d. 4.44,4.44,1/9 (4.90)
KLQQSVLYESRNKNSVA,WASTRES,QQYHRLPFS,0.28 0.54 0.29,0.37,0/9
KSSSSVLYESRNKNSVA,WASTRGS,QYYHRLPLS,1.79 2.14 2.25,2.06,4/9 (3.96)